Results from ChEMBL document CHEMBL5506020 (J Med Chem, 2024).

Protein sequences, listed by entry. Tags and fused reporters are not part of them.
UniProt Q92793, whole entry: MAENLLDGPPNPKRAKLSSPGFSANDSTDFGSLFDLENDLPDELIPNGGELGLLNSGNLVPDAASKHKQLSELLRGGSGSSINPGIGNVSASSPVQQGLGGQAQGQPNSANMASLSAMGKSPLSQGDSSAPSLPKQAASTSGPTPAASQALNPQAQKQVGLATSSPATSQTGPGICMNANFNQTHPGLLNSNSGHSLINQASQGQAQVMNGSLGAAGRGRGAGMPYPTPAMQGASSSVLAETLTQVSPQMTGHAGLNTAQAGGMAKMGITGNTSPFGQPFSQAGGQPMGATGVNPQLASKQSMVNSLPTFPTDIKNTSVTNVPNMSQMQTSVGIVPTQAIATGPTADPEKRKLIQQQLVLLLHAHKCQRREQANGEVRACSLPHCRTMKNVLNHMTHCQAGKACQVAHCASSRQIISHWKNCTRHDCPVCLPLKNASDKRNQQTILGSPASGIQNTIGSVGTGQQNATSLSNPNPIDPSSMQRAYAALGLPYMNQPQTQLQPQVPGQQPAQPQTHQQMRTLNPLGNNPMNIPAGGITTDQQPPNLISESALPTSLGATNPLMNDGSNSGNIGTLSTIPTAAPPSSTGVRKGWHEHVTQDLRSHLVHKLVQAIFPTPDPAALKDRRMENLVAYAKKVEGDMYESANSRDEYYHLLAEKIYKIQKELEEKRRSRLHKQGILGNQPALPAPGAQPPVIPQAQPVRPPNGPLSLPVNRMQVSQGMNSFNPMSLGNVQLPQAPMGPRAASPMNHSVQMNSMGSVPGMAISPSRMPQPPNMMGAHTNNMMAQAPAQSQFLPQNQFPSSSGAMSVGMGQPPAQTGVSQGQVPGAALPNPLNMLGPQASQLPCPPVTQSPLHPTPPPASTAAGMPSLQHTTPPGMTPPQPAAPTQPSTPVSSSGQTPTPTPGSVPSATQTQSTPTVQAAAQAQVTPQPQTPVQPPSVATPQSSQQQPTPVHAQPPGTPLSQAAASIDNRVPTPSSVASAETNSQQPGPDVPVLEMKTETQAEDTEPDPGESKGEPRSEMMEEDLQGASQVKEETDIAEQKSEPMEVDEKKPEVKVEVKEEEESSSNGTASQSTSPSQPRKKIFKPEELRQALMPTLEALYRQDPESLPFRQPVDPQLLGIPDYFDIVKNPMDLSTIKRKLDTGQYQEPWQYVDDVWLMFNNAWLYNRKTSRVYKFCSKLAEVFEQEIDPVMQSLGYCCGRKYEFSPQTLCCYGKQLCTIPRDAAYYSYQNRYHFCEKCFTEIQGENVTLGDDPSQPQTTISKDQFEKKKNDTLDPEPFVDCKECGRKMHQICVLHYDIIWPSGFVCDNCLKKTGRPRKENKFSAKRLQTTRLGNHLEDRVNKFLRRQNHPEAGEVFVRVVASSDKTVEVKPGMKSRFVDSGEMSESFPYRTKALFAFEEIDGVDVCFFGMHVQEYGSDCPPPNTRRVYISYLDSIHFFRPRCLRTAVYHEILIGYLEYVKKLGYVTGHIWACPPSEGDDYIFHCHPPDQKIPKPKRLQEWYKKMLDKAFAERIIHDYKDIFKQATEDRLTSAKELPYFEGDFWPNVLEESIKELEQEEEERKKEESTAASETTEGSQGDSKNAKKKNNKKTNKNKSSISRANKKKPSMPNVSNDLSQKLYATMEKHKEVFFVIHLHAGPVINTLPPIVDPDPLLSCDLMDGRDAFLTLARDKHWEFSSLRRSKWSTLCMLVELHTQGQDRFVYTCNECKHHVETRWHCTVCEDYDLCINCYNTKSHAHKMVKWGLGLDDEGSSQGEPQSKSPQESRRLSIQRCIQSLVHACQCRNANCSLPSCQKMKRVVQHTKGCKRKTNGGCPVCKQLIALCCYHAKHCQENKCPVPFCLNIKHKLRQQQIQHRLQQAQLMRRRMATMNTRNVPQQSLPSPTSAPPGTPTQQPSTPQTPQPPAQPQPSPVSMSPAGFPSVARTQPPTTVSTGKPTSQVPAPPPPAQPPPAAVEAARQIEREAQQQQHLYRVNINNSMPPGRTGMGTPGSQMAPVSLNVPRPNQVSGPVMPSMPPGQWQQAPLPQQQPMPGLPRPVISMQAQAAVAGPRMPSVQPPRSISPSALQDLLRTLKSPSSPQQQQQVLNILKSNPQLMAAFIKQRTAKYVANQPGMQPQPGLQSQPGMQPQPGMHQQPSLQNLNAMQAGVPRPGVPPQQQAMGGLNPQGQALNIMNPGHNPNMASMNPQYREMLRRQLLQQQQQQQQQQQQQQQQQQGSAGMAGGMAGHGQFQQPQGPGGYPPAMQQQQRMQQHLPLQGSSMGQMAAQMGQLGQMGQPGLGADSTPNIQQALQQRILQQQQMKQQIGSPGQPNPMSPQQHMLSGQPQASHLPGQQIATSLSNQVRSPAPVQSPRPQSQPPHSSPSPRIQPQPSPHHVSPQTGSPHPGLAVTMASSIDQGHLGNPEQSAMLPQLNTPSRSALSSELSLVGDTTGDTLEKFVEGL
UniProt Q09472, whole entry: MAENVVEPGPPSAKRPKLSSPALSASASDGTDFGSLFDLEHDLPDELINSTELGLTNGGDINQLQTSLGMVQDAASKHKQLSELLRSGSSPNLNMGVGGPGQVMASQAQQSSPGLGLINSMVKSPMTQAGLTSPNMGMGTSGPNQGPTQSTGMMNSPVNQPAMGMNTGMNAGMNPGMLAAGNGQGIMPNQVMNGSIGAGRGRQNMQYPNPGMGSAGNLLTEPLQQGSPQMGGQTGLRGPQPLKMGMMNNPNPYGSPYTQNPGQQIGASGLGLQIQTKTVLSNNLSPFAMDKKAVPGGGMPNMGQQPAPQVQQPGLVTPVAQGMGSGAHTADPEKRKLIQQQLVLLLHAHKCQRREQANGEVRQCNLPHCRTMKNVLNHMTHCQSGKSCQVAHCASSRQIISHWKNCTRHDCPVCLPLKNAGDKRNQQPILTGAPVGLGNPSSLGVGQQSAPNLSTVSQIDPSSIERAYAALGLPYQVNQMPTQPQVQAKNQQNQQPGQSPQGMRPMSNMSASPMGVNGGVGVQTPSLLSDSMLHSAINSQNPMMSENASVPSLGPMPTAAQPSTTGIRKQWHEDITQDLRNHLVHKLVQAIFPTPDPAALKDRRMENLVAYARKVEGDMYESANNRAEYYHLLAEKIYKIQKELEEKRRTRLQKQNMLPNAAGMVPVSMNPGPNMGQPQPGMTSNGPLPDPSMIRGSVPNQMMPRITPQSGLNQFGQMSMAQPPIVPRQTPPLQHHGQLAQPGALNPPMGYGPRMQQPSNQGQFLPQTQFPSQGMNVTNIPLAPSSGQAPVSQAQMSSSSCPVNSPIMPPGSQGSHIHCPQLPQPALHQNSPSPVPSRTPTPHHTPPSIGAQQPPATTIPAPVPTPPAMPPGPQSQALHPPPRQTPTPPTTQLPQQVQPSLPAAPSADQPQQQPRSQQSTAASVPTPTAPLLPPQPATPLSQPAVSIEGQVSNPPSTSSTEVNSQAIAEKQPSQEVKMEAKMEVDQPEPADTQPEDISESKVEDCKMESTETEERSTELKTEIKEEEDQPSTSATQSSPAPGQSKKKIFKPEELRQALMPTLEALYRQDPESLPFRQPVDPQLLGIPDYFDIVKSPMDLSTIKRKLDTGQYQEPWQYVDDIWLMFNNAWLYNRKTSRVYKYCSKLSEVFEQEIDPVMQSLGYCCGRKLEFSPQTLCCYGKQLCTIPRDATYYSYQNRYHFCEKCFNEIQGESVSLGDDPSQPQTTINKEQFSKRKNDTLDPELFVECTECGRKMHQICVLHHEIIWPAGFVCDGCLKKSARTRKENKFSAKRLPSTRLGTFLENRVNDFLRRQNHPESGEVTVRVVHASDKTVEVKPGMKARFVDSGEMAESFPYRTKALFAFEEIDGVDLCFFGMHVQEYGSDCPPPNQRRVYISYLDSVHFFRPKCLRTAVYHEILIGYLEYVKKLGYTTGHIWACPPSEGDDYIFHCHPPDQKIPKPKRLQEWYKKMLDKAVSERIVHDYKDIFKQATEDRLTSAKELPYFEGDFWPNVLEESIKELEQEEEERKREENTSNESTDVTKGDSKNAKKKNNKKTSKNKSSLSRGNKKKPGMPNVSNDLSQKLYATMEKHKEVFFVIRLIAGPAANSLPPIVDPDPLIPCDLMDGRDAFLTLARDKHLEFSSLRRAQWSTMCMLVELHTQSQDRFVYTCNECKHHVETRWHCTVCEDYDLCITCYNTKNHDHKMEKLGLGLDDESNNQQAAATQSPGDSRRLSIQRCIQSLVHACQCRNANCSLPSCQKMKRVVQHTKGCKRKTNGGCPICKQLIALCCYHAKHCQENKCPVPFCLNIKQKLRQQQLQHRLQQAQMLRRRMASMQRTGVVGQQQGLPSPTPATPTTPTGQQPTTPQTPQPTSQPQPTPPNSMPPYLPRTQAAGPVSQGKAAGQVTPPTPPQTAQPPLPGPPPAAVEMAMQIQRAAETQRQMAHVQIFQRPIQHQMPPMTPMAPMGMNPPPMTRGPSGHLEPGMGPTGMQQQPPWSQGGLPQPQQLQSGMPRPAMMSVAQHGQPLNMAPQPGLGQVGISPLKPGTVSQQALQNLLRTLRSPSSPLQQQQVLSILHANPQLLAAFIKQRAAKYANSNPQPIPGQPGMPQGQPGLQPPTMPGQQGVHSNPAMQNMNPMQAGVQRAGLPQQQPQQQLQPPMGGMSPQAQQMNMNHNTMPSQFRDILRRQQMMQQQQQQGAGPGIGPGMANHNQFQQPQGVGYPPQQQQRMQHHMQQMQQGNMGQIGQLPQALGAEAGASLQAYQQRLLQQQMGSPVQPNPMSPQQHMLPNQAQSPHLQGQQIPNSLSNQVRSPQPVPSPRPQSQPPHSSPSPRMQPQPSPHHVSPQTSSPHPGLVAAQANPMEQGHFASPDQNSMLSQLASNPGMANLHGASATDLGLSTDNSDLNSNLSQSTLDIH

Experiments:
CREB-binding protein [1] = target: T1, CREB-binding protein (Homo sapiens, UniProt Q92793)
CREB-binding protein [2] = target: T1, CREB-binding protein; remark: listed apart in the source
[3] = target: Histone acetyltransferase p300 (Homo sapiens, UniProt Q09472)

CO[C@H]1CC[C@H](n2c([C@@H]3CCCC(=O)N3c3ccc(F)c(F)c3)nc3cc(-c4c(C)noc4C)ccc32)CC1 [INOBRODIB]
IC50 (CREB-binding protein [1]): 91.4 nM
Kd (CREB-binding protein [2]): 1.7 nM
Kd [3]: 1.3 nM
